# Earlier results as cited in paper PMC5651683.
# Chains of the proteins cited; added tags and fusions are not shown. Residues count along the entry.
# UniProt Q16623, 1-20: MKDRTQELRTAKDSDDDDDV
# Target: syntaxin N-peptide N-peptide motif (UniProt Q16623)
substance,measurement,value
Munc18a (from UniProt P61764),Kd,> 31 µM
